Chains of the proteins cited; added tags and fusions are not shown. Lines headed by an entry give the natural chain unless they say otherwise; changes in a name come on top.
UniProt P34914: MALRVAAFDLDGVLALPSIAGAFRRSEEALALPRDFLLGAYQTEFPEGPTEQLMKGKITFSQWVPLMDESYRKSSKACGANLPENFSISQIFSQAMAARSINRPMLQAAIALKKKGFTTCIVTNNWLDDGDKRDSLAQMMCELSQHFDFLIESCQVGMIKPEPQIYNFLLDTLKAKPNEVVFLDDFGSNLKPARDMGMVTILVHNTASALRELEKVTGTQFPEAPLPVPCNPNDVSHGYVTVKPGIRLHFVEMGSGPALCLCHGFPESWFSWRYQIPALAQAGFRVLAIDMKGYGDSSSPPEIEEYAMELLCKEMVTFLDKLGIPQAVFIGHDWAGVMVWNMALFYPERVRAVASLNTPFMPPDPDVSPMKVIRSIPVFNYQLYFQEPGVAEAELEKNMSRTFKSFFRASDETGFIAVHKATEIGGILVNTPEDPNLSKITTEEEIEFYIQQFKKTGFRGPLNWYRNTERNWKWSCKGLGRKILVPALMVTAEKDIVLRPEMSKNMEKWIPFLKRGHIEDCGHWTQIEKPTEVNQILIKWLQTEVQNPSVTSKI
UniProt P80299: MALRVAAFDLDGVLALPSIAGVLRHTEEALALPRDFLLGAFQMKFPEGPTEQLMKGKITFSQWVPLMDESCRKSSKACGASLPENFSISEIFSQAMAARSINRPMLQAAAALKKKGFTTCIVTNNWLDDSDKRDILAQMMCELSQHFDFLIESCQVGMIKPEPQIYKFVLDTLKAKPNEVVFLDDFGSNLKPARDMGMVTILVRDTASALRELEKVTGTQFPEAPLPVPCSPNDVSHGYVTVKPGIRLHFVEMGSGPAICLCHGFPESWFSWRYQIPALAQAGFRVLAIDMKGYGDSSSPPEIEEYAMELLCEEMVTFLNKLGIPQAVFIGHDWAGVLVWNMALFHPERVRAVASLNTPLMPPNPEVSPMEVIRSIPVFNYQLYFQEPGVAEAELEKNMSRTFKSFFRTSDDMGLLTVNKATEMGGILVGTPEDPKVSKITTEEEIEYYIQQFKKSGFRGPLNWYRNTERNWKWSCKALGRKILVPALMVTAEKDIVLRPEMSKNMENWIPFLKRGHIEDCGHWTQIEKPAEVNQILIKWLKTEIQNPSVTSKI

According to PMC3285443 (European Journal of Pharmaceutical Sciences, 2010):

What was measured:
recombinant murine sEH = recombinant murine sEH (Mus musculus, UniProt P34914); assay: fluorescent assay with CMNPC substrate, recombinant mouse sEH; type: biochemical; conditions: read-out: IC50, CMNPC, Mouse
recombinant rat sEH = recombinant rat sEH (Rattus norvegicus, UniProt P80299); assay: fluorescent assay with CMNPC substrate, recombinant rat sEH; type: biochemical; conditions: read-out: IC50, CMNPC, Rat

## CC(=O)N1CCC(NC(=O)NC23CC4CC(CC(C4)C2)C3)CC1 [compound 14, N-(1-acetylpiperidin-4-yl)-N’-(adamant-1-yl) urea]
Recombinant murine sEH
  IC50: 9 nM
Recombinant rat sEH
  IC50: 6 nM
